# Columns and labels:
# Protein sequences, listed by entry. Tags and fused reporters are not part of them. Residues count along the entry.
# UniProt O42275, 24-633 limits assumed: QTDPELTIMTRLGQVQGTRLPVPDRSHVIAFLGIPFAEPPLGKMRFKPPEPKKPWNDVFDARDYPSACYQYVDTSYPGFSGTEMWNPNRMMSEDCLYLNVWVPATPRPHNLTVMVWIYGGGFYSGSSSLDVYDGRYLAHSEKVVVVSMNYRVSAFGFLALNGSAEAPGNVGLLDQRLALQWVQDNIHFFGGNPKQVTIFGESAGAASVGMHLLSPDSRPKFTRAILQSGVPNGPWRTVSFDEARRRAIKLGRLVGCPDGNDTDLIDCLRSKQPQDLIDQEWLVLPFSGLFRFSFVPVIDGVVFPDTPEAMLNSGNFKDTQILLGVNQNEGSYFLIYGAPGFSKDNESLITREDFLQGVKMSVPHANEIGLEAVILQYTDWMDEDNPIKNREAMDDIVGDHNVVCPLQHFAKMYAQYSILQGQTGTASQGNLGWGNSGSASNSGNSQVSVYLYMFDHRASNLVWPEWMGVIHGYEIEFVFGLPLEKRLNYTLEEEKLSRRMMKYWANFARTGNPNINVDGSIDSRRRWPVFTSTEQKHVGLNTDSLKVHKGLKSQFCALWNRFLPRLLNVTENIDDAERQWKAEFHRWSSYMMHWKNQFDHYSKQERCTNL
# [1] = Aqueous hydrolysis studies in PBS pH 7.4; details: 37° C., methanol (up to 50%) co-solvent
# [2] = target: Acetyl cholinesterase (Type V-S from Electrophorus electricus) (Electrophorus electricus, UniProt O42275); test: Acetylcholinesterase inactivation and reactivation (Sephadex G-25, Ellman); details: 30 min incubation with 52 μM inhibitor, then chromatography over Sephadex gel
# AChE = AChE (Electrophorus electricus, UniProt O42275); test: Kinetic inhibition studies (Lineweaver-Burk); details: Lineweaver-Burk plot; substrate 1000 to 50 μM, inhibitor 1 to 100 μM
# [3] = Plasma hydrolysis studies; details: 37° C., human plasma diluted to 80% with PBS (pH 7.4)
# [4] = Chemical hydrolysis studies (aqueous potassium carbonate, HPLC); details: 37° C., aqueous potassium carbonate (10 eq), 20% DMSO, after 2 hr
Molecule,t1/2 (hr) in PBS (pH 7.4) buffer [1] [hr],% Enzyme Activity (AChE activity recovery after inactivation) [2] [%],type of inhibition of AChE (AChE),t1/2 (hr) in diluted human plasma [3] [h],products released on chemical hydrolysis [4]
CC(C)(C)CCOC(=O)Cc1ccccc1Nc1c(Cl)cccc1Cl,105,95,–,–,–
CC(C)Cc1ccc(C(C)C(=O)OCCC(C)(C)C)cc1 (centres unmarked),–,–,reversible inhibition,–,–
CC(C)Cc1ccc(C(C)C(=O)OCc2ccc(OC(=O)OCCC(C)(C)C)cc2)cc1 (centres unmarked),20.4,109,–,3.33,–
COc1ccc2cc([C@H](C)C(=O)OCc3ccc(OC(=O)OCCC(C)(C)C)cc3)ccc2c1,–,95,reversible inhibition,2.23,release of both the NSAID Naproxen and the 4-hydroxybenzylalcohol
COc1ccc2cc([C@H](C)C(=O)OCCC(C)(C)C)ccc2c1,–,113,–,–,–
"[o-(2,6-dichloroanilino)phenyl]acetyl 3,3-dimethylbutyl carbonate",6.95,95,–,5.93,–

# Source: patent US20120010168A1, “Unique Dual-Action Therapeutics” (published 2012)
